Measurements as given in patent publication US7816134B2, “Method of extensive culture of antigen-specific cytotoxic T cells” (Takara Bio Inc., priority 2000, dated 2010).
Read-outs that look alike come from different tables or passages of the source.

Tested on: HLA-A2.1-having EBV transformed B-cells (221A2.1)
Conditions: for Cytotoxic Activity (%) E/T Ratio 1 / Cytotoxic Activity (%) E/T Ratio 3 / Cytotoxic Activity (%) E/T Ratio 10: FluMPA2.1
[1] = Example 1-3, sample 10 μg/ml during CTL induction +, during culture with IL-2 +, peptide addition +
[2] = Example 1-3, sample 10 μg/ml during CTL induction +, during culture with IL-2 +, peptide addition −
[3] = Example 1-5, sample during CTL induction −, during culture with IL-2 + (10 μg/ml), peptide addition +
[4] = Example 1-5, sample during CTL induction −, during culture with IL-2 + (10 μg/ml), peptide addition −

sulfated D-(+)-glucose [Sulfated Glucose]
Cytotoxic Activity (%) E/T Ratio 1 [1]: 34.0%
Cytotoxic Activity (%) E/T Ratio 3 [1]: 67.8%
Cytotoxic Activity (%) E/T Ratio 10 [1]: 92.1%
Cytotoxic Activity (%) E/T Ratio 1 [2]: 14.3%
Cytotoxic Activity (%) E/T Ratio 3 [2]: 27.8%
Cytotoxic Activity (%) E/T Ratio 10 [2]: 21.0%
Cytotoxic Activity (%) E/T Ratio 1 [3]: 8.1%
Cytotoxic Activity (%) E/T Ratio 3 [3]: 17.8%
Cytotoxic Activity (%) E/T Ratio 10 [3]: 32.5%
Cytotoxic Activity (%) E/T Ratio 1 [4]: 2.2%
Cytotoxic Activity (%) E/T Ratio 3 [4]: 2.4%
Cytotoxic Activity (%) E/T Ratio 10 [4]: 7.5%
cytotoxic activity after continuous culture (in words) (sample 10 μg/ml only during continuous culture): maintaining an antigen-specific cytotoxic activity
